Laboratory results published in ChEMBL document CHEMBL1153772, “Isolation, synthesis, and biological activity of aphrocallistin, an adenine-substituted bromotyramine metabolite from the Hexactinellida sponge Aphrocallistes beatrix” (J Nat Prod, 2009).

How the values were obtained:
[1] = test system: Vero; assay: Selectivity ratio of IC50 for human DLD1 cells bearing p53 mutation to IC50 for african green monkey Vero cells
[2] = test system: Vero; assay: Selectivity ratio of IC50 for human PANC1 cells having p53 mutation to IC50 for african green monkey Vero cells

CC(=O)N(C)CCc1cc(Br)c(OCCCNc2ncn(C)c3ncnc2-3)c(Br)c1 [APHROCALLISTIN]
Ratio IC50 [1]: 10
Ratio IC50 [2]: 3
